Experimental data as given in ChEMBL document CHEMBL1146689, “The design and synthesis of a novel quinolizidine template for potent opioid and opioid receptor-like (ORL1, NOP) receptor ligands” (2004).

Amino acid sequences for entries named in this document (tags omitted).
UniProt P41146, whole entry: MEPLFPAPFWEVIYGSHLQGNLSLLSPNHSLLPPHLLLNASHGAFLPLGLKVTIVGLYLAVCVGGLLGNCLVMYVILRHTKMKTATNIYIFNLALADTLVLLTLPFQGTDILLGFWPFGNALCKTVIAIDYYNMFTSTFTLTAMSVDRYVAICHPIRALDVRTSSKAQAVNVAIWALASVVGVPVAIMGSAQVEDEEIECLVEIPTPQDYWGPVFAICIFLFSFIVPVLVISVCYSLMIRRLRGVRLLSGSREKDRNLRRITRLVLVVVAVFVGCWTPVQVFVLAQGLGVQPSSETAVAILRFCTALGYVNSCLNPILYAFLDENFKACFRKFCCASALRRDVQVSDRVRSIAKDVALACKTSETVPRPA
UniProt P35372, whole entry: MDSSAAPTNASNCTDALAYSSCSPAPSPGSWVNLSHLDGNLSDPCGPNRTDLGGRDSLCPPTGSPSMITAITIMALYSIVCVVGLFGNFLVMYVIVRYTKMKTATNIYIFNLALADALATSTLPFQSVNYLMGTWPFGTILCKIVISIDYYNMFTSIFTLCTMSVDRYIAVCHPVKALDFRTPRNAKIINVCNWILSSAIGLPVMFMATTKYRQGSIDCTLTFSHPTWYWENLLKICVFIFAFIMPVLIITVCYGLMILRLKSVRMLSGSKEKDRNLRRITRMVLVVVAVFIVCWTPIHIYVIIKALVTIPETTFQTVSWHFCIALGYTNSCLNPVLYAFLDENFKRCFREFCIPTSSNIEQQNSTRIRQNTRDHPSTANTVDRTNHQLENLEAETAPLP
UniProt P41145, whole entry: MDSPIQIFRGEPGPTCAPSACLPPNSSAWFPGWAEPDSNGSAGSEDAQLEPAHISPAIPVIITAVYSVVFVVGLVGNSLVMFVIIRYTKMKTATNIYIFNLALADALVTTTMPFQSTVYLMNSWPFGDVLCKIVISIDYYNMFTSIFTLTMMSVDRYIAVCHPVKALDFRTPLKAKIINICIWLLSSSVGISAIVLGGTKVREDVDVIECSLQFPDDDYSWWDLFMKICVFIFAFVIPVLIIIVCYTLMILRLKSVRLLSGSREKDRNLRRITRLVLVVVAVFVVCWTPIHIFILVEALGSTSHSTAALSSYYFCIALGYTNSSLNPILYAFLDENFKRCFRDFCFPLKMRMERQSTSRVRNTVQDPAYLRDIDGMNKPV

Key:
[1] = biological target: Nociceptin receptor (Homo sapiens) (UniProt P41146); test: Stimulation of [35S]GTP-gamma-S, binding to human NOP receptor in cell membrane
[2] = biological target: Mu-type opioid receptor (Homo sapiens) (UniProt P35372); test: Stimulation of [35S]GTP-gamma-S, binding to human opioid receptor mu 1 in cell membrane
[3] = biological target: Kappa-type opioid receptor (Homo sapiens) (UniProt P41145); test: Stimulation of [35S]GTP-gamma-S, binding to human opioid receptor kappa 1 in cell membrane

Question: Which results are given for `Oc1nc2ccccc2n1[C@@H]1CCN2[C@H](CCC[C@H]2c2ccccc2)C1`?
Answer: Stimulation [1]: 89%; Stimulation [2]: 55%; Stimulation [3]: 100%

Question: With `CCn1c(=O)n([C@@H]2CCN3[C@H](CCC[C@H]3c3ccccc3)C2)c2ccccc21` as the molecule, how does the Stimulation [1] read?
Answer: 87%

Question: And the Stimulation [3]?
Answer: 79%
